Test results published in US20220317138A1, “METHODS FOR DETERMINING THE CONCENTRATION OF A CARBAPENEM ANTIBIOTIC IN A BIOLOGICAL SAMPLE” (priority 2019, published 2022).

The chains behind the UniProt entries cited, without tags or fusion partners. Residues count along the entry.
UniProt Q9F663, 25-293 limits assumed: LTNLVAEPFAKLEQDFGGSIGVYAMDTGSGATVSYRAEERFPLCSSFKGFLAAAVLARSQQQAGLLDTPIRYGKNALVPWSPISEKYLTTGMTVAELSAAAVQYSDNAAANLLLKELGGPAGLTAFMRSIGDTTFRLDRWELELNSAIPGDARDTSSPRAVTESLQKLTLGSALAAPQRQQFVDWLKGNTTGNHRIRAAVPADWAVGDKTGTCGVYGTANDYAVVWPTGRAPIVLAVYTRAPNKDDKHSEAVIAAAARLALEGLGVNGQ

Target: Kpc2 beta-lactamase (class A) (Klebsiella pneumoniae, UniProt Q9F663)
Type: biochemical
Conditions: nitrocefin reporter

## Cc1onc(-c2ccccc2)c1C(=O)N[C@@H]1C(=O)N2[C@@H]1SC(C)(C)[C@@H]2C(=O)O [Penstapho ®]
  hydrolysis rate symbol, (Vmax/V0)-1: + (0.1-1)
